Laboratory results reported in patent US6855687B2, “Stimulation of cartilage growth with agonists of the non-proteolytically activated thrombin receptor” (The Board of Regents The University of Texas System, priority 2000, dated 2005).

Key:
[1] = biological target: high affinity thrombin binding sites on rat articular chondrocytes (rat); test: 125I-thrombin binding to cultured rat chondrocytes, Scatchard analysis, three experiments
[2] = biological target: very high affinity thrombin binding sites on rat articular chondrocytes (rat); test: as above
[3] = biological target: thrombin receptor; test: Specific binding of 125I thrombin to rat chondrocytes (Scatchard analysis); details: 230,000 sites, read-out: affinity of high affinity sites
Procedure: Primary cultures of rat articular chondrocytes were isolated and prepared for in vitro analysis using established methods (see Kuettner, K E., et.al., J. Cell Biology 93: 743-750, 1982). Briefly, cartilage pieces were dissected from the shoulder of rats and the pieces were digested with trypsin for one hour and with collagenase for three hours in tissue culture medium (DMEM) at 37 C. with stirring. The cells were plated in flasks at high density (50,000 cells/cm sq.) and were culture in DMEM containing antibiotics an ascorbic acid at 37° C. in an atmosphere of 5% CO2.
The specific binding of ^125I thrombin to chondrocytes was carried out using established thrombin receptor binding assays as disclosed in U.S. Pat. No. 5,352,664 and Carney, D H and Cunningham, DD, Cell 15:1341-1349, 1978. Briefly, highly purified human thrombin was iodinated and added to cultures of chondrocytes with or without unlabeled thrombin to correct for nonspecific binding. By incubating cells with different concentrations of labeled thrombin and measuring the amount of thrombin bound to cells and the amount of free thrombin in the medium it is possible to estimate the number of receptors per cell and the affinity of thrombin for that binding site.

Kd [1] [nM] | binding sites per cell (sites per cell) [1] | Kd [2] [nM] | binding sites per cell (sites per cell) [2] | Kd [3] | Substance
27 | 230000 | 0.1 | 3000 | – | highly purified human thrombin, iodinated (125I thrombin) (from UniProt P00734 44-622; P00734 44-622) (enzyme)
– | – | – | – | 27 nM and ~27 nM | thrombin

“And” between values parts separate entries of the source, which are not always exact repeats. Equal entries are not always repeated.
